# From EP3102204B1 (The University Of Mississippi, priority 2014, dated 2015)
# Protein sequences, listed by entry. Tags and fused reporters are not part of them.
# UniProt Q9R0C9, whole entry: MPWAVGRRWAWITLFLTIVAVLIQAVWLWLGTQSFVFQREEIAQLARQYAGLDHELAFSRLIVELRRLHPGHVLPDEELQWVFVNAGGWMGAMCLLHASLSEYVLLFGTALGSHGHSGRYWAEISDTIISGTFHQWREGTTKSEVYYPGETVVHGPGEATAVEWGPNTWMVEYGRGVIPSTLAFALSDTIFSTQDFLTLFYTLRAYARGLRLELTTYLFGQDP
# Assays:
# [1] = target: T1, σ-2 (Rattus norvegicus, UniProt Q5U3Y7); assay: σ receptor assay: σ-2 binding with [3H]DTG plus (+)-pentazocine; conditions: σ-2 over σ-1
# T1 construct: from tissue; host or cells: rat brain homogenate (membrane protein)
# T1 sequence (Q5U3Y7 1-176): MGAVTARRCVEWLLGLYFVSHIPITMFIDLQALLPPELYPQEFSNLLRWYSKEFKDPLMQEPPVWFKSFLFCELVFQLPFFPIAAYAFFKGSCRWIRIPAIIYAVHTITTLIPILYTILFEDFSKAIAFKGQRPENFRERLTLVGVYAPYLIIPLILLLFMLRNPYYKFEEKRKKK
# [2] = target: σ-1 (Rattus norvegicus, UniProt Q9R0C9); assay: σ receptor assay: σ-1 binding with [3H](+)-pentazocine; conditions: rat brain homogenates; CM table
Structure (SMILES),preference (selectivity) for the σ-2 subtype [1],Ki [2]
CC(=O)c1ccc2c(c1)oc(=O)n2CCCCN1CCN(C2CCCCC2)CC1 [CM 142],7 fold,–
O=c1oc2ccccc2n1CCCCN1CCN(c2ccc(F)cc2)CC1 [CM 170],11 fold,–
Cn1c(=O)n(CCCCN2CCN(C3CCCCC3)CC2)c2ccccc21 [CM 396],–,50.2 ± 7.59 nM
